# Binding of CDR-mutated scFvs to a peptide of the spike HR2 region

Binding partner: SARS-CoV-2 spike HR2 peptide, sequence PDVDLGDISGINAS.

Parent: Ab-14, a human scFv built as VH, three GGGGS repeats, VL. Only the CDRs of the light chain vary.
VH: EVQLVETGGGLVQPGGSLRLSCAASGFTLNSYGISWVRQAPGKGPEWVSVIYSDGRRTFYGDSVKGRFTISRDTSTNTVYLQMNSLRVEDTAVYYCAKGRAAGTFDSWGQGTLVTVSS
VL: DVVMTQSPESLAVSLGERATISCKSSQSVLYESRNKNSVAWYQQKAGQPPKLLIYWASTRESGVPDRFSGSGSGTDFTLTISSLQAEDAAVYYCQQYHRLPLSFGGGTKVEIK

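Phage display of a naive human antibody library on the peptide gave the parent. The library (AAYL50) carries one to three amino acid substitutions per variant, with no insertions or deletions. Affinity was read by AlphaSeq, a pooled yeast mating assay with surface-displayed partners. Binding brings cells together so that they mate, and sequencing counts the barcode pairs among the diploids. Each replicate has its own calibration line, from reference interactions of the BCL2 family. There are three technical replicates.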

Variants are written as CDR1, CDR2 and CDR3 of the light chain (limits as in the source). Parent: KSSQSVLYESRNKNSVA, WASTRES, QQYHRLPLS. The Kd shown is the geometric mean over detected replicates; a lower Kd is a better binder. "not detected" marks a missing value. The strain was present, yet no cells mated with the target were sequenced in any replicate, which points to weak or no binding.

CDR-L1,CDR-L2,CDR-L3,Kd (apparent),detected
KSNQSVLYESRNKNSVA,WASTRES,QQQMRLPLS,not detected,0/3
KSSQSVLYESRGKNSVA,WRSTREN,QQYHRLPLS,2.6 µM,1/3
KSSQSVLYESRNKNSCA,NASTRES,QQYHRGPLS,6.8 µM,1/3
KSSQSVLYYSRNKNRVA,WASTRES,QQLHRLPLS,not detected,0/3
KSSQDVLWESREKNSVA,WASTRES,QQYHRLPLS,not detected,0/3
KSSQSVLYESRNKNSVA,WASTREN,SQYHRLCLS,1.4 µM,3/3
KSSLMVLYESRNKNSVA,WASTRES,QQYHRPPLS,36 µM,2/3
KSSQTVLYESRNKTNVA,WASTRES,QQYHRLPLS,450 nM,3/3
KSSQSVLYESRNKNSVR,WASTRES,QQWHRLPLS,not detected,0/3
KSSQSVLYESRNKNIVA,WASTRKS,QQVHRLPLS,not detected,0/3
KSSYSVLYESRNKLSVA,WASGRES,QQYHRLPLS,9.0 µM,2/3
KSSQSVLYESRNKGSVA,WASTEES,QQYHRLPLS,450 nM,3/3
KYSQIVLYESRNKNSVA,WASTRES,QQYIRLPLS,95 nM,3/3
KSSQSHLYESRNKNSVA,WASTRES,NQYHRHPLS,6.1 nM,3/3
KSNQQVLYESRNKNSYA,WASTRES,QQYHRLPLS,not detected,0/3
WSSQSVLYESRNKYSVA,WASTREV,QQYHRLPLS,150 nM,3/3
KSSQSVLYKSRNKNSVA,WMSTRES,QQYHRLPLS,4.3 µM,3/3
KCSQTVGYESRNKNSVA,WASTRES,QQYHRLPLS,23 nM,3/3
KSSQSVLYENRNKNSVA,WASTRVS,QFYHRLPLS,9.3 nM,3/3
KSSQCVLYESRNKNSVA,WASTRES,QQYHRLPCS,40 µM,2/3
KSSQSVLYESRNKNSVA,WASTGEY,QQRHRLPLS,1.6 µM,1/3
KSSCSVLYESRNKNSKA,WASTRES,QQYIRLPLS,5.1 µM,3/3
KSSQSVLYESRNKNSVA,WASTRES,QSQHRLRLS,not detected,0/3
KSSGSVLYESRNGNCVA,WASTRES,QQYHRLPLS,260 nM,3/3
KSSQSVLYGSRNHNSVA,WASTRES,QQYHRLPAS,3.1 nM,3/3
KSSISVLYESRNKNSHA,WASTRES,QQGHRLPLS,40 µM,2/3

Further variants, results first:

Kd (apparent),detected,CDR-L1,CDR-L2,CDR-L3
5.0 µM,2/3,KSSQSELYESRNKNSPA,WASTRES,QYYHRLPLS
3.1 nM,3/3,KSSQSVLYESTNKNSVA,WASTRES,QQYHRWHLS
9.1 nM,3/3,KSSQSFLYESRNQNSVA,WVSTRES,QQYHRLPLS
not detected,0/3,KSSQSVLYEPRNKNSVK,WWSTRES,QQYHRLPLS
13 µM,2/3,KSSQSVLYESRIKNSTA,WASTRES,QQYHRLPIS
260 nM,1/3,KSSQSVTYESRNKNSVA,WISTRES,QQYHRLPCS
39 µM,1/3,KSSQSVLYESRNKNSVN,WASTREY,QQIHRLPLS
7.7 µM,3/3,KSFQSVLYESRCKNSVA,WAETRES,QQYHRLPLS
not detected,0/3,KSSQSGLYESRNKNYVA,WASTDES,QQYHRLPLS
170 µM,1/3,KSSQSVLYESRNKNSVH,WASTRES,QQYHRLPEG
290 nM,3/3,KSSLSVLYESRNKNDVA,WASYRES,QQYHRLPLS
not detected,0/3,KSSQSVLYESMNHNSVA,WASGRES,QQYHRLPLS
8.5 nM,3/3,KMSQSVLYESRNKNSVA,WASTRES,YQYHRLPLS
6.8 µM,1/3,KSSQSVLYESRNKNSVA,WHSTRES,QTYHRLPLF
14 nM,3/3,KSSQSVLYESRNKNSVA,WASTRED,QQYHRWQLS
60 nM,1/3,KSSQSVLYESRHWNSVA,WASTRES,QQYHFLPLS
140 nM,3/3,KSSQNVLYTSRNKNSVA,WASTRES,QQYHRLPLG
5.4 µM,1/3,KSSQSVLYEYRNKNSVS,WASTRES,QQYHRLPLS
540 nM,3/3,KSSQSVAYESRNKNSVA,WASTVES,QQYHRYPLS
83 nM,3/3,KSSQYVLYESRNSNSVA,WASTRES,QQYHRLPLS
14 nM,3/3,KSSQAVLYESRNKSSVA,WASTRES,SQYHRLPLS
6.6 µM,1/3,KSSQSVLYESRNKNFVA,WRSTRES,QQYHRLPHS
5.2 µM,1/3,KSSQSVLYESRNKNSVK,WASTRES,QQYHRLDWS
not detected,0/3,KSSQSVLYEYRNKNSVA,WASTRES,QQNHRLMLS
35 nM,3/3,KSSQSVTYESRNKYSVA,WASTRES,QQYCRLPLS
1.2 µM,1/3,KSSYSVLYESRNKNSVA,WAPTRES,QQYHRLPLR
13 nM,3/3,NSSQSVLYESRNKNSVA,WASTRYS,QQYHRLPLS

Extract of 8 entries:

CDR-L1,CDR-L2,CDR-L3,Kd (apparent),detected
KSSYSVLYESRNKNSVA,WAPTRES,QQYHRLPLR,1.2 µM,1/3
KSSQSVLYESRNKNSVH,WASTRES,QQYHRLPEG,170 µM,1/3
KSSQSVLYESRNKNSVR,WASTRES,QQWHRLPLS,not detected,0/3
KSSQTVLYESRNKTNVA,WASTRES,QQYHRLPLS,450 nM,3/3
KSFQSVLYESRCKNSVA,WAETRES,QQYHRLPLS,7.7 µM,3/3
KSSQSVLYESRIKNSTA,WASTRES,QQYHRLPIS,13 µM,2/3
KSSQNVLYTSRNKNSVA,WASTRES,QQYHRLPLG,140 nM,3/3
KSSQCVLYESRNKNSVA,WASTRES,QQYHRLPCS,40 µM,2/3

Nonspecific signal, from three strains lacking the peptide, appeared in 18% of pairings of library AAYL50, centred on 15 µM (5% of these signals below 970 nM); values are not corrected for it.

Reference: Engelhart et al. 2022, doi:10.1038/s41597-022-01779-4. File: FLAb, binding data.